Counter-ions that a name gives are not always drawn.
Molecular target: T1, DPPIV (Homo sapiens, UniProt P27487)
T1 construct: from tissue; host or cells: prostasomes from human seminal plasma, purified on immobilized adenosine deaminase
Experiment: Stability of the inhibitor-DPPIV adduct
Type: biochemical
Conditions: DPPIV incubated with 0.5 mM inhibitor 1 hour, excess removed by gel filtration

Sequences of proteins named here, by UniProt entry; tags and fusion partners are left off.
UniProt P27487, whole entry: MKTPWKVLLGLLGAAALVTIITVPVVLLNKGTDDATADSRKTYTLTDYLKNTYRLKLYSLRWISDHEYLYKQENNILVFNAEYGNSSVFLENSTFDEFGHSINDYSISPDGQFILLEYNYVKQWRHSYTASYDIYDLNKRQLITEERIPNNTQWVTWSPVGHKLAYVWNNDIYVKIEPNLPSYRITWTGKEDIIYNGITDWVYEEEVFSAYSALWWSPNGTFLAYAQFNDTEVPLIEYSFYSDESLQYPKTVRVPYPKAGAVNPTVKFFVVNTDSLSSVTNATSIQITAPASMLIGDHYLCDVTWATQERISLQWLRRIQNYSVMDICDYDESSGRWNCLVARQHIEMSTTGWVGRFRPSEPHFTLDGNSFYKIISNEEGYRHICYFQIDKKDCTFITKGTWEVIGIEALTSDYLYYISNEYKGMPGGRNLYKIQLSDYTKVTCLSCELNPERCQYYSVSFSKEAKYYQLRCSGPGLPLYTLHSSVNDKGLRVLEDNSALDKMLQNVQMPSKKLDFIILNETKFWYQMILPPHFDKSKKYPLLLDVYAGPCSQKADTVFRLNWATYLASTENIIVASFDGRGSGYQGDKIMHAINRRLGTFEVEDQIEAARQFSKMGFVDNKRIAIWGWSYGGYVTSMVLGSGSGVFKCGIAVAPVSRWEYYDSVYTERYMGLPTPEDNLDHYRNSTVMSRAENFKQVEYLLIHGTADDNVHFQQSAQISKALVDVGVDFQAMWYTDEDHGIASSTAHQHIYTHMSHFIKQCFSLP

| SMILES | stability of the adduct at room temperature [weeks] |
| --- | --- |
| N[C@@H](Cc1cccc2ccccc12)C(=O)N1CCC[C@H]1P(=O)(Oc1ccccc1)Oc1ccccc1 [1-naphthyl-alanine-Pro^P -(OPh)2, Diphenyl (R)-1-[(S)-(1-naphthyl)alanyl]pyrrolidine-2-phosphonate hydrochloride] | > 4 |
| N[C@@H](CC1CCCCC1)C(=O)N1CCC[C@H]1P(=O)(Oc1ccccc1)Oc1ccccc1 [Cyclohexylalanine-Pro^P -(OPh)2, Diphenyl (R)-1-[(S)-cyclohexylalanyl]pyrrolidine-2-phosphonate hydrochloride] | > 4 |
